Patent publication US8058008B2, “Method for extracting quantitative information relating to an influence on a cellular response” (Fisher Bioimage APS, priority 1997, dated 2011)

Tested on: PKCα-F64L-S65T-GFP fusion
Conditions: carbachol stimulation of M1-BHK cells

**Q.** With C[N+](C)(C)CCOC(N)=O [carbachol] as the compound, how does the “translocation of PKCα-F64L-S65T-GFP” value read?
**A.** dose-dependent transient translocation from the cytoplasm to the plasma membrane
